# Measurements from patent US20100093760A1, “METHODS FOR IDENTIFYING COMPOUNDS THAT MODULATE CELL SIGNALING AND METHODS EMPLOYING SUCH COMPOUNDS” (The General Hospital Corporation, priority 2006, published 2010).
# B1: BMP2: recombinant bone morphogenetic protein ligand (R&D Systems) (protein, UniProt P12643 283-396, looked up)
# Bone morphogenetic protein 2: QAKHKQRKRLKSSCKRHPLYVDFSDVGWNDWIVAPPGYHAFYCHGECPFPLADHLNSTNHAIVQTLVNSVNSKIPKACCVPTELSAISMLYLDENEKVVLKNYQDMVVEGCGCR
# How the values were obtained:
# hepcidin promoter = assay: Hepcidin promoter luciferase reporter assay (Hep-Luc) in Hep3B cells; format: cell-based; conditions: BMP2 25 ng/ml
# Method: Murine PASMCs grown to 50% confluence in 6-well plates were transiently transfected with 0.3 μg Id1 promoter luciferase reporter construct (BRE-Luc, Dr. Peter ten Dijke, Leiden University Medical Center, Netherlands (Korchynskyi et al., J. Biol. Chem. 277:4883-4891, 2002)) in combination with 0.6 μg plasmids expressing constitutively-active forms of BMP type I receptors (caALK2, caALK3, or caALK6, kindly provided by Dr. Kohei Miyazono, University of Tokyo, Japan (Fujii et al., Mol. Biol. Cell 10:3801-3813, 1999)), using Fugene6 (Roche). To assess Activin and […] type I receptor function, PASMCs were transiently transfected with 0.3 μg PAI-1 promoter luciferase reporter construct (CAGA-Luc, Dr. Peter ten Dijke (Dennler et al., Embo J. 17:3091-3100, 1998)) in combination with 0.6 μg plasmids expressing constitutively active forms of type I receptors (caALK4, caALK5, and caALK7, also provided by Dr. Kohei Miyazono (Okadome et al., J. Biol. Chem. 271:21687-21690, 1996; Shimizu et al., Genes Cells 3:125-134, 1998)). For both reporters, 0.2 μg pRL-TK Renilla luciferase (Promega) was used to control for transfection efficiency. […] Cell extracts were harvested, and relative promoter activity quantitated by the ratio of firefly to Renilla luciferase activity using the dual luciferase assay kit (Promega). […] Hepcidin promoter activity was measured by luciferase assay as above.
# hepcidin (HAMP) mRNA = assay: Hepcidin mRNA qRT-PCR in HepG2 cells; format: cell-based, human; conditions: BMP2
# Method: Hep3B or HepG2 cells were incubated in 1% FCS α-MEM for 6 hours in the presence or absence of Compound C/Dorsomorphin (10 μM) with or without BMP2 (25 ng/ml) or human IL-6 (R&D Biosystems, 100 ng/ml), and RNA then extracted from cultured cells with Trizol. Quantitative RT-PCR was performed for mRNA encoding Id1 or human hepcidin (HAMP) as previously described (Babitt et al., Nat. Genet. 38:531-539, 2006; Yu et al., J. Biol. Chem. 280:24443-24450, 2005), and normalized to 18S ribosomal RNA (rRNA) or β-actin mRNA levels.
molecule,measurement,setting,value
B1,increase in hepcidin promoter activity (Hep-Luc),hepcidin promoter,~50 fold
same,increase in hepcidin mRNA over the basal level,hepcidin (HAMP) mRNA,16 fold
